In patent US10098974B2, “Catalytic radiofluorination” (priority 2004, dated 2018):

Experiments:
[1] = test system: C6-BAG glioma; test: Biodistribution of TPPI in rats implanted with C6-BAG glioma
[2] = Biodistribution of TPPI in rats

“[I-125]-p-iodophenyltriphenylphosponium nitrate” gave a tumor-to-brain ratio ([1]; 60 minutes) of 40, a tumor-to-brain ratio ([1]; 120 minutes) of 17 and a tumor-to-brain ratio ([1]; 240 minutes) of 44. For the same substance, the “washout from the tumor” value ([1]; 240 minutes) was “no washout”, the Tumor-to-blood ratio ([1]; at all times (60, 120, 240 minutes)) was 12 and the Heart activity ([2]; rats, 5, 30 and 60 minutes) was “over 0.7 % dose per gram”. For the same substance, the Heart-to-lung ratio ([2]; rats, 5 minutes) was 0.96, the heart-to-blood ratio ([2]; rats, 5 minutes) was 2.9 and the Heart-to-lung ratio ([2]; rats, 30 minutes) was 1.62. It also gave a heart-to-blood ratio ([2]; rats, 30 minutes) of 8.3, a Heart-to-lung ratio ([2]; rats, 60 minutes) of 1.5 and a heart-to-blood ratio ([2]; rats, 60 minutes) of 12.1. The “retention of activity in the heart” value ([2]; rats, period of 60 min) was “remained constant”.
